What was measured:
[1] = target: cation-independent mannose 6-phosphate receptor (CIMPR), immobilised on a column or plate; assay: CIMPR affinity chromatography of different production batches
[2] = target: cation-independent mannose 6-phosphate receptor (CIMPR), immobilised on a column or plate; assay: M6P receptor (CIMPR) plate binding assay, bound rhGAA read by GAA activity
[3] = target: cell surface cation-independent M6P receptor (CIMPR) on fibroblasts and myoblasts (UniProt P11717); assay: cell-based or functional assay
[4] = target: cation-independent mannose 6-phosphate receptor (CIMPR), immobilised on a column or plate; assay: CIMPR affinity chromatography, M6P gradient elution, read by GAA activity

Substance | percent CIMPR receptor binding [1] [%] | Kd [2] [nM] | Kuptake, internalization by Pompe fibroblasts and skeletal muscle myoblasts [3] [nM] | concentration that saturates cellular receptors (fibroblast uptake) [3] [nM] | percent of rhGAA bound to CIMPR (eluted with M6P) [4] [%] | percent of rhGAA that did not bind to the CIMPR [4] [%] | uptake efficiency constant (Kuptake), internalized GAA activity in normal and Pompe fibroblasts [3] [nM]
ATB-200 rhGAA (recombinant human acid alpha-glucosidase produced in CHO cell line GA-ATB-200) (from UniProt P10253 70-952) (enzyme) | 70 | 2 to 4 | 7 to 14 | 20 | – | – | –
Lumizyme (alglucosidase alfa, conventional rhGAA) (from UniProt P10253 57-952) (enzyme) | – | – | – | 250 | 22 | 78 | 56
Myozyme (alglucosidase alfa, conventional rhGAA) (from UniProt P10253 57-952) (enzyme) | – | – | – | – | 27 | 73 | –

— patent publication US20190276812A1
